# Test results taken from patent US7883707B2, “Induction of antigen specific immunnologic tolerance” (priority 2002, dated 2011).
# B1: ITI of iduronidase: intrathymic injection of iduronidase at 1 mg/kg, without immunosuppressive drugs (protein, UniProt P35475 28-653, looked up)
# Alpha-L-iduronidase: APHLVHVDAARALWPLRRFWRSTGFCPPLPHSQADQYVLSWDQQLNLAYVGAVPHRGIKQVRTHWLLELVTTRGSTGRGLSYNFTHLDGYLDLLRENQLLPGFELMGSASGHFTDFEDKQQVFEWKDLVSSLARRYIGRYGLAHVSKWNFETWNEPDHHDFDNVSMTMQGFLNYYDACSEGLRAASPALRLGGPGDSFHTPPRSPLSWGLLRHCHDGTNFFTGEAGVRLDYISLHRKGARSSISILEQEKVVAQQIRQLFPKFADTPIYNDEADPLVGWSLPQPWRADVTYAAMVVKVIAQHQNLLLANTTSAFPYALLSNDNAFLSYHPHPFAQRTLTARFQVNNTRPPHVQLLRKPVLTAMGLLALLDEEQLWAEVSQAGTVLDSNHTVGVLASAHRPQGPADAWRAAVLIYASDDTRAHPNRSVAVTLRLRGVPPGPGLVYVTRYLDNGLCSPDGEWRRLGRPVFPTAEQFRRMRAAEDPVAAAPRPLPAGGRLTLRPALRLPSLLLVHVCARPEKPPGQVTRLRALPLTQGQLVLVWSDEHVGSKCLWTYEIQFSQDGKAYTPVSRKPSTFNLFVFSPDTGAVSGSYRVRALDYWARPGPFSDPVPYLEVPVPRGPPSPGNP
# System: antibody titer to iduronidase
# Experiment: ELISA antibody titer to iduronidase in canines on weekly iduronidase infusions, with or without tolerance regimens
# Settings: early canines, FIG. 5
molecule,measurement,value
B1,titer by 7 weeks,exceeded 20
